Experimental findings from article doi:10.1101/2020.11.09.375162v1 (biorxiv, 2020) are described below.

The chains behind the UniProt entries cited, without tags or fusion partners.
UniProt P34972, whole entry: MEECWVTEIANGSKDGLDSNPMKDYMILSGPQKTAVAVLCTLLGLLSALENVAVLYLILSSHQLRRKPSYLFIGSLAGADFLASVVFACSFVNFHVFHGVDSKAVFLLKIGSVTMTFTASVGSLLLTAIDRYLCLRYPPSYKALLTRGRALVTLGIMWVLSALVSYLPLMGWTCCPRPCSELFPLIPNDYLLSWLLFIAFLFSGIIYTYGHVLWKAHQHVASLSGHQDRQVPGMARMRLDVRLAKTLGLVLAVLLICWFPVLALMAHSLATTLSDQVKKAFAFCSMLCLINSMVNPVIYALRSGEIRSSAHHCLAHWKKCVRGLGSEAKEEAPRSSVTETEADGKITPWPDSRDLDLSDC

Where two headings read alike, the source gives them in different places.

Common to all, as to experiment: cell-based
Assay [1] concerns the target T1, human CB2 receptor (hCB2) (Homo sapiens, UniProt P34972).
For assay [2], the target named is T1, human CB2 receptor (hCB2). This is another data set of the same source.
Assay [3] deals with T1, human CB2 receptor (hCB2). The source holds these as a separate data set.
For assay [4], the target named is T1, human CB2 receptor (hCB2). This is another data set of the same source.
Assay [5] addresses T1, human CB2 receptor (hCB2). This is another data set of the same source.

In the case of `CCCCCCC(C)(C)c1cc(OC)c([C@@H]2C=C(CO)[C@@H]3C[C@H]2C3(C)C)c(OC)c1` [HU308], the EC50 (commonly the concentration giving half of the maximal effect) in assay [1] is 24.4 nM; in assay [2], 9.82 nM; in assay [3], 6.81 nM; in assay [4], 32.4 nM; in assay [5] it was 16.1 nM.
